According to article PMC9981719, “A novel designed membrane-active peptide for the control of foodborne Salmonella enterica serovar Typhimurium” (Scientific Reports, 2023):

Legend:
Type in all cases: cell-based
[1] = tested on: Staphylococcus aureus ATCC 25923; conditions: triplicate
From the text: (§1) All tests were done in triplicate.

[2] = tested on: Staphylococcus epidermidis ATCC 12228; conditions: colony count on TSA from non-turbid MIC wells, triplicate
From the text: as §1

[3] = tested on: human red blood cells (hRBCs); assay: Hemolysis assay; conditions: 2% (v/v) hRBCs in PBS, peptide 0.98–250 µg/ml, 1 h, 37 °C, OD 405 nm
Protocol: The toxicity of all peptide derivatives toward human red blood cells (hRBCs) was investigated by evaluating the amount of hemoglobin released after exposure to peptide. Briefly, hRBCs (blood group O) were collected from a healthy adult volunteer into a heparin-coated polycarbonate tube. The sample was centrifuged for 5 min at 1000g to separate erythrocytes from buffy coat and plasma. The erythrocytes were washed at least three times with 1 × PBS and centrifuged for 5 min at 1000g or until supernatant was clear. The sample was resuspended in PBS to obtain 2% (v/v) hRBCs. To determine hRBC lysis, hRBC suspensions were incubated with equal volumes of various concentrations of peptide (0.98–250 µg/ml) for 1 h at 37 °C. Intact hRBCs were centrifuged for 5 min at 1000g, supernatants were transferred into new 96-well plates, and absorbance was measured at OD 405 nm. Untreated hRBCs (in PBS only) served as negative control (ODNegative) and hRBCs treated with 0.1% Triton X-100 as positive control (ODTritonX-100). Absorbance of samples was converted to percentage hemolysis according to the equation: Hemolysis%=ODSample-ODNegative/ODTriton X-100-ODNegative×100

**Q.** Which MIC ([1]; broth microdilution in MHB, 37 °C, 24 h) does the source give for `CC[C@H](C)[C@H](NC(=O)CN)C(=O)NCC(=O)N[C@@H](C)C(=O)N[C@H](C(=O)N[C@@H](CC(C)C)C(=O)N[C@@H](CCCCN)C(=O)N[C@H](C(=O)N[C@@H](CC(C)C)C(=O)N[C@H](C(=O)N[C@H](C(=O)NCC(=O)N[C@@H](CC(C)C)C(=O)N1CCC[C@H]1C(=O)N[C@@H](C)C(=O)N[C@@H](CC(C)C)C(=O)N[C@H](C(=O)N[C@@H](CO)C(=O)N[C@@H](Cc1c[nH]c2ccccc12)C(=O)N[C@H](C(=O)N[C@@H](CCCCN)C(=O)N[C@@H](CCCNC(=N)N)C(=O)N[C@@H](CCCCN)C(=O)N[C@@H](CCCNC(=N)N)C(=O)N[C@@H](CCC(N)=O)C(=O)N[C@@H](CCC(N)=O)C(N)=O)[C@@H](C)CC)[C@@H](C)CC)[C@@H](C)O)[C@@H](C)O)C(C)C)C(C)C` [Melittin, reference compound] here?
**A.** 3.91 (3.91) µg/ml

**Q.** And the MBC ([1]; colony count on TSA from non-turbid MIC wells)?
**A.** 3.91 (3.91) µg/ml

**Q.** What about the MBC [2] of the same compound?
**A.** 3.91 (3.91) µg/ml

**Q.** And the “MHC, minimum concentration that caused 10% hemolysis of human red blood cells” value [3]?
**A.** ˂ 0.98 µg/ml
